Literature values in patent US20230270982A1, “DEVICES FOR REGIO-SPECIFIC RELEASE OF CARRIED DRUG AT ILEOCECAL REGION” (Teva Pharmaceutical Industries Ltd., priority 2020, published 2023).

Conditions: standard oral dosage form targeted to the upper GI tract

## esterified levodopa [eLD]
  improvement in systemic exposure compared to LD: no significant improvement
